# This is a selection: effects in other tests are not listed, and their absence says nothing.
# Tests used:
# Parameters in all cases: scale not given: the % may be the effect or the level left
# SR = experiment: Antiproliferative activity against human SR cells assessed as cell growth inhibition at 10 uM by SRB assay
# NCI-H460 = experiment: Antiproliferative activity against human NCI-H460 cells assessed as cell growth inhibition at 10 uM by SRB assay
# CAKI-1 = experiment: Antiproliferative activity against human CAKI-1 cells assessed as cell growth inhibition at 10 uM by SRB assay
# SN12C = experiment: Antiproliferative activity against human SN12C cells assessed as cell growth inhibition at 10 uM by SRB assay
smiles,measurement,setting,value
C[N+](CCCl)(CCCl)Cc1ccc(B(O)O)cc1.[Br-],Activity,SR,90%
same,Activity,NCI-H460,85%
same,Activity,CAKI-1,66%
same,Activity,SN12C,57%
